# Ab-91 heavy chain CDR variants: yeast mating affinities

Target peptide (SARS-CoV-2 spike, HR2 region): PDVDLGDISGINAS

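Phage display of a naive human antibody library on the peptide gave the parent. In library AAYL51, one, two or three CDR residues were substituted; doubles and triples were drawn at random. The assay is AlphaSeq: two haploid yeast populations carry antibody and antigen on their surface. The frequency of each diploid, read from paired DNA barcodes, reflects how well the two displayed proteins bind. The ratio of observed to expected reads was calibrated, replicate by replicate, on BCL2-family standards whose Kd was known from biolayer interferometry. The assay was run in three technical replicates.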

Ab-91 is the parent antibody, in scFv form: VL, then three GGGGS repeats, then VH. The light chain is unchanged in all variants.
VL: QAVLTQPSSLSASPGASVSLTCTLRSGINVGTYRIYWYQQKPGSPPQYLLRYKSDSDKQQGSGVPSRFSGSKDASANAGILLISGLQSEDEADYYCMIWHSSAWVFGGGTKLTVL
VH: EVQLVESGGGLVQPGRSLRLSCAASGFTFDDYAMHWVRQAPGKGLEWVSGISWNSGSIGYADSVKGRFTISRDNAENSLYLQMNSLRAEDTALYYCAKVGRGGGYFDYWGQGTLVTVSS

Substitutions are numbered in sequence along the VH above, starting at 1 (not Kabat).
Numbers give log10(Kd / nM), so 0 is 1 nM and 3 is 1 µM. Smaller is tighter.
Averages over replicates are reported, and they cover detected replicates only.
"nd" means that the variant was in the library but no mating with the target was seen in that replicate; the authors take this as a sign of poor binding, and no number exists.

changes | replicates, log10 nM | mean, log10 nM | control signals
D30I+G50W+V64A | nd nd nd | nd | 2 of 9 (4.48)
G26H+Y32Q+A61G | nd nd nd | nd | 0 of 9
G26P+Y32F+Y105S | 1.53 1.52 1.40 | 1.48 | 3 of 9 (3.86)
F29L+M34A+F106D | nd nd 5.71 | 5.71 | 2 of 9 (5.26)
M34I+N54P+D62W | nd 3.36 3.95 | 3.66 | 4 of 9 (4.91)
W53L+S63Y+V99E | nd nd nd | nd | 0 of 9
G26K+S55G+D107G | 5.65 4.76 nd | 5.21 | 5 of 9 (5.31)
G26P+G59L+V99R | nd nd nd | nd | 0 of 9
G50Y+S57C+G104L | nd nd 4.19 | 4.19 | 2 of 9 (4.72)
H35T+S57V+K65E | nd nd nd | nd | 2 of 9 (4.10)
G26N+S57D+G103W | 3.07 3.05 4.48 | 3.53 | 3 of 9 (4.13)
D30T+G56N+G59W | nd nd nd | nd | 0 of 9
G26S+D31Q+S63G | nd nd nd | nd | 0 of 9
G26R+D107E+Y108W | 1.39 1.35 0.59 | 1.11 | 1 of 9 (5.25)
A33K+S57C+V64N | nd nd nd | nd | 2 of 9 (3.96)
S52D+W53M+R101K | 3.55 2.89 2.23 | 2.89 | 0 of 9
G50A+Y60K+V99Y | 5.15 4.86 4.62 | 4.88 | 2 of 9 (6.13)
I51T+G102Y | nd nd 4.56 | 4.56 | 1 of 9 (5.12)
Y32K+A33C+G50V | 4.37 5.72 nd | 5.04 | 2 of 9 (3.47)
S63F+V99F+G104F | 3.60 nd nd | 3.60 | 3 of 9 (4.00)
M34V+G100K | nd nd nd | nd | 1 of 9 (2.86)
D30Y+G59N | 3.71 nd nd | 3.71 | 2 of 9 (3.77)
M34H+H35T+R101G | nd 3.47 nd | 3.47 | 2 of 9 (4.15)
G26C+G50Q+S55C | 4.91 nd nd | 4.91 | 0 of 9
N54K+S63G+Y105M | nd nd nd | nd | 2 of 9 (3.87)
H35I+I51A+F106W | nd nd nd | nd | 0 of 9
G50S+I51F+W53E | nd 5.26 nd | 5.26 | 3 of 9 (4.68)
G26D+D30E+D31M | 4.28 nd nd | 4.28 | 2 of 9 (3.40)
M34N+N54C+A61L | nd nd nd | nd | 0 of 9
V64N+D107E | 3.07 2.93 1.88 | 2.63 | 0 of 9
G26K+Y32E+M34T | 4.34 5.26 nd | 4.80 | 6 of 9 (4.74)
A33V+S52I+Y108I | 5.21 nd 4.26 | 4.73 | 1 of 9 (3.63)
A33Q+G56L+I58D | nd nd nd | nd | 1 of 9 (3.01)
F27L+S52L+D62Q | 4.77 5.27 5.59 | 5.21 | 5 of 9 (4.86)
G50V+K65S+V99Y | 4.91 3.72 nd | 4.31 | 1 of 9 (3.74)
S52I+V64K+Y108S | nd nd nd | nd | 0 of 9
G26A+G102K+Y108E | nd nd nd | nd | 0 of 9
D31W+G50D+D107Q | nd nd nd | nd | 0 of 9
Y32W+G50V+S52T | nd 4.61 nd | 4.61 | 1 of 9 (3.67)
A33Q+H35I+G103W | 5.80 nd 3.44 | 4.62 | 3 of 9 (4.74)
Y60N+V99P+R101G | nd nd 4.19 | 4.19 | 0 of 9
D30R+M34N+R101T | nd nd nd | nd | 0 of 9
S52A+I58R+R101Y | 1.33 1.54 1.16 | 1.34 | 5 of 9 (4.83)
G50A+R101V+Y108N | nd nd 4.11 | 4.11 | 3 of 9 (4.42)
T28R+N54M+A61K | nd 5.00 nd | 5.00 | 1 of 9 (2.47)

For reference, 5 entries of the list once more:

changes	replicates, log10 nM	mean, log10 nM	control signals
G26N+S57D+G103W	3.07 3.05 4.48	3.53	3 of 9 (4.13)
T28R+N54M+A61K	nd 5.00 nd	5.00	1 of 9 (2.47)
S63F+V99F+G104F	3.60 nd nd	3.60	3 of 9 (4.00)
G26A+G102K+Y108E	nd nd nd	nd	0 of 9
G50Y+S57C+G104L	nd nd 4.19	4.19	2 of 9 (4.72)

Empty control strains, which show no peptide, gave a signal in 21% of pairings with library AAYL51; the median was 4.54 and 95% of these signals were weaker than 3.26. No background was subtracted. For each scFv, signals with the empty controls are counted beside the result, with their mean in brackets.
In this assay the parent's reference entry averaged 1.86; its copy inside this library read 0.88.

Reference: Engelhart et al. 2022, doi:10.1038/s41597-022-01779-4. File: FLAb, binding data.